A word on the IC50: it is the point on the concentration scale where inhibition reaches its midpoint.

Sequences of proteins named here, by UniProt entry; tags and fusion partners are left off. A line that says so, or that is headed by a name, gives the form on record, which may keep a tag or linker.
UniProt Q15858, other isoform, or with tags, fused parts or gaps: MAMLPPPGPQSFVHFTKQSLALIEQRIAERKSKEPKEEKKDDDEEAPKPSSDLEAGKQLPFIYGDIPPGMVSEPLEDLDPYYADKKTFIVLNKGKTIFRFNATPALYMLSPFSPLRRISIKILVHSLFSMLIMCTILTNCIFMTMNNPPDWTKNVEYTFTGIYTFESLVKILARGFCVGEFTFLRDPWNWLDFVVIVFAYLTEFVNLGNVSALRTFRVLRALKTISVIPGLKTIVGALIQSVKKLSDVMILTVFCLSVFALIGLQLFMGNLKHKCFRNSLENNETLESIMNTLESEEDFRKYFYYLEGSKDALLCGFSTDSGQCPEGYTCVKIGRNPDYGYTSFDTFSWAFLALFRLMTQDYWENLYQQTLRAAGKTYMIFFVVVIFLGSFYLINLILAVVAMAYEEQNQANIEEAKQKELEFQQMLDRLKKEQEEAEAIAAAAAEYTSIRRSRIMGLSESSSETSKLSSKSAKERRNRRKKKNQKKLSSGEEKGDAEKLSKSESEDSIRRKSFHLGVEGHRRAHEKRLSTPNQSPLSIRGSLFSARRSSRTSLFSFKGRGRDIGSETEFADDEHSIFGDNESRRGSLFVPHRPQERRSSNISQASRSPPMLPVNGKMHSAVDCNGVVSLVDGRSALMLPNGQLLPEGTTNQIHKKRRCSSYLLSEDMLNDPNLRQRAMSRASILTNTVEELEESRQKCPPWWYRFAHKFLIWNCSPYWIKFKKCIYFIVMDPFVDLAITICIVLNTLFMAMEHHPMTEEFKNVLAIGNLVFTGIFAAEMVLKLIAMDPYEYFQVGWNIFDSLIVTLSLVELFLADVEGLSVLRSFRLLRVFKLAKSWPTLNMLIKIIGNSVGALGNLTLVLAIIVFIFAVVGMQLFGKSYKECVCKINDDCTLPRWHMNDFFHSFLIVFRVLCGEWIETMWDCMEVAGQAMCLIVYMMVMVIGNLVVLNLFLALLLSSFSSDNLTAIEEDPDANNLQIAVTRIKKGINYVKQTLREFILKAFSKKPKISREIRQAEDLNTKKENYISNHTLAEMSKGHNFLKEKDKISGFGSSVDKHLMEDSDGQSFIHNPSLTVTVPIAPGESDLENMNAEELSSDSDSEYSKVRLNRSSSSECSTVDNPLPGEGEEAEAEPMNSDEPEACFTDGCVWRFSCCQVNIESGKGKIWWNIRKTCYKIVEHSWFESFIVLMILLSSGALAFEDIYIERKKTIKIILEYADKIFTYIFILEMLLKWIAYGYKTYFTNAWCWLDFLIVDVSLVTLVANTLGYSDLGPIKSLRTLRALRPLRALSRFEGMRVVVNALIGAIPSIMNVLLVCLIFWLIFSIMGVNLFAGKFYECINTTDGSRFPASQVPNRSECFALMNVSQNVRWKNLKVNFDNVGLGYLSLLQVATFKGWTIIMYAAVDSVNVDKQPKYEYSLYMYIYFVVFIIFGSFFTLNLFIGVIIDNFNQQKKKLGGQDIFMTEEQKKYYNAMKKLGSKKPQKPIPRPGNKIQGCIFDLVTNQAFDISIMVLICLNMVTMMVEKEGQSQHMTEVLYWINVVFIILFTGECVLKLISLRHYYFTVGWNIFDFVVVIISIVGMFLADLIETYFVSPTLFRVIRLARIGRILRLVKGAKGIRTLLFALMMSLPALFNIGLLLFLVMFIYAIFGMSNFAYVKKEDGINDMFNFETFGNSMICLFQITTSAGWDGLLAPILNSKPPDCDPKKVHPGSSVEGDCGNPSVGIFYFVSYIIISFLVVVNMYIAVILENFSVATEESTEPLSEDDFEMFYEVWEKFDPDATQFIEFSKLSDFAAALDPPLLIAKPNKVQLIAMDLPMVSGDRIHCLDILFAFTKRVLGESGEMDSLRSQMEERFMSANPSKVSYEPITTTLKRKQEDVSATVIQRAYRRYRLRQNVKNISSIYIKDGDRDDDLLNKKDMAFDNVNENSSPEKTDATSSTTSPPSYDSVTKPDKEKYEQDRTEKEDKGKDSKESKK

From patent US9771376B2 (GENENTECH, INC., priority 2000, dated 2017) come the findings set out here.

This assay concerns the target human NaV1.7 (Homo sapiens (Human), UniProt Q15858). As to the kind of experiment: Patch voltage clamp electrophysiology assay, NaV1.7. The class given is cell-based. The conditions noted are these: inactivated state; HEK-293 cells stably expressing NaV1.7 with β1 subunit; held at −60 mV; read-out: Human 1.7 EP (IC50 μM).
Turning to “5-chloro-4-(2-cyclopropylethoxy)-2-fluoro-N-(methylsulfonyl)benzamide [Example 10]”, the IC50 came out at 0.0082 µM.

With “5-chloro-2-fluoro-4-((3-methoxyadamantan-1-yl)methoxy)-N-(methylsulfonyl)benzamide [Example 18]”, the half-inhibitory concentration (IC50) was 0.356 µM.

For “5-chloro-2-fluoro-4-((3-fluoroadamantan-1-yl)methoxy)-N-(methylsulfonyl)benzamide [Example 11]”, the IC50 amounted to 0.0087 µM.

Turning to “5-chloro-2-fluoro-N-(methylsulfonyl)-4-(((1S,2R,4S)-1,7,7-trimethylbicyclo[2.2.1]heptan-2-yl)oxy)benzamide [Example 14]”, the half-inhibitory concentration (IC50) came to 0.0377 µM.

Take “4-(adamantan-1-ylmethoxy)-5-chloro-2-fluoro-N-(methylsulfonyl)benzamide [Example 8]”: the IC50 turned out to be 0.0038 µM.

“5-chloro-2-fluoro-4-(((1S,2R,5S)-2-isopropyl-5-methylcyclohexyl)oxy)-N-(methylsulfonyl)benzamide [Example 148]”: the IC50 was 0.0014 µM.

Turning to “5-chloro-4-(((1R,5S)-6,6-dimethylbicyclo[3.1.1]hept-2-en-2-yl)methoxy)-2-fluoro-N-(methylsulfonyl)benzamide [Example 60]”, the IC50 was 0.0003 µM.

Regarding “4-(2-(adamantan-1-yl)ethoxy)-5-chloro-2-fluoro-N-(methylsulfonyl)benzamide [Example 5]”, the half-maximal inhibitory concentration (IC50) is 0.0201 µM.

Regarding “5-chloro-2-fluoro-N-(methylsulfonyl)-4-(((1S,2S,3S,5R)-2,6,6-trimethylbicyclo[3.1.1]heptan-3-yl)oxy)benzamide [Example 9]”, the half-inhibitory concentration (IC50) came to 0.0052 µM.

For the substance “5-chloro-2-fluoro-N-(methylsulfonyl)-4-((4-pentylbicyclo-[2.2.2]octan-1-yl)methoxy)benzamide [Example 20]”, the 50% inhibitory concentration (IC50) was 0.0563 µM.

With “5-chloro-4-((-3, 5-dimethyladamantan-1-yl)methoxy)-2-fluoro-N-(methylsulfonyl)benzamide [Example 16]”, the half-inhibitory concentration (IC50) amounted to 0.0312 µM.

Consider “4-(adamantan-1-ylmethoxy)-5-cyclopropyl-2-fluoro-N-((3-hydroxyazetidin-1-yl)sulfonyl)benzamide [Example 106]”, for which the IC50 stood at 0.0847 µM.

For the substance “5-chloro-4-((4,4-difluoroadamantan-1-yl)methoxy)-N-(N,N-dimethylsulfamoyl)-2-fluorobenzamide [Example 135]”, the IC50 came out at 0.0304 µM.

For “6-(adamantan-1-ylmethoxy)-5-cyclopropyl-N-(methylsulfonyl)nicotinamide [Example 150]”, the IC50 came out at 0.0043 µM.
